Key:
[1] = biological target: T1, DOR-Gqi5 (Mus musculus, UniProt P32300); assay type: cell-based
T1 construct: signal peptide (N); expressed in transfected cells; host or cells: AEQ cells (Flp-in T-rex 293 with aequorin)

By UniProt entry, the sequences of proteins in these tests, tags left out. Where a name states a change or a piece, a line headed by the entry shows the natural chain unless it says otherwise. Chains listed by the source or under a name are the forms on record and can include a tag or linker. Residues count along the entry.
UniProt P32300, with tags, fused parts or gaps: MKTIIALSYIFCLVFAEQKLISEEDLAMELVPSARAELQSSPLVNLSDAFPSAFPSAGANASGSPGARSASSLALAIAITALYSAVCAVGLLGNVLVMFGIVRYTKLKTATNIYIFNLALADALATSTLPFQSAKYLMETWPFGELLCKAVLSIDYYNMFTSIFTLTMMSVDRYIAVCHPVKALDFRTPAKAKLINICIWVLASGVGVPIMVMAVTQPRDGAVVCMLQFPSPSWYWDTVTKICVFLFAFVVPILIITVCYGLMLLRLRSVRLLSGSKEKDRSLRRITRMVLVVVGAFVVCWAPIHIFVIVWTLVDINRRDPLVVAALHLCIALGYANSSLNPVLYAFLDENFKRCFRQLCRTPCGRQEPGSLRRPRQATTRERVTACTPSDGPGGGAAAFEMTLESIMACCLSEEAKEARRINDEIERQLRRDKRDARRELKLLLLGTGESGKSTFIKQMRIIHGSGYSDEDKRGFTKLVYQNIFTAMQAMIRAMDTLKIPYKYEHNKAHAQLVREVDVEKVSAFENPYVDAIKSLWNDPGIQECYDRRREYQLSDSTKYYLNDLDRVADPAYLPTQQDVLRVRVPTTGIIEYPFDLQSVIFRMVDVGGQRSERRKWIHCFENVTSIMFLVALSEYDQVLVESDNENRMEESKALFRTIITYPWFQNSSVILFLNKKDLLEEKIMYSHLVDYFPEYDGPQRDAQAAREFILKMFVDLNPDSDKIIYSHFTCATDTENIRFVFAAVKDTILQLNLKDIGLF
UniProt P14416, 1-414 isoform P14416-2: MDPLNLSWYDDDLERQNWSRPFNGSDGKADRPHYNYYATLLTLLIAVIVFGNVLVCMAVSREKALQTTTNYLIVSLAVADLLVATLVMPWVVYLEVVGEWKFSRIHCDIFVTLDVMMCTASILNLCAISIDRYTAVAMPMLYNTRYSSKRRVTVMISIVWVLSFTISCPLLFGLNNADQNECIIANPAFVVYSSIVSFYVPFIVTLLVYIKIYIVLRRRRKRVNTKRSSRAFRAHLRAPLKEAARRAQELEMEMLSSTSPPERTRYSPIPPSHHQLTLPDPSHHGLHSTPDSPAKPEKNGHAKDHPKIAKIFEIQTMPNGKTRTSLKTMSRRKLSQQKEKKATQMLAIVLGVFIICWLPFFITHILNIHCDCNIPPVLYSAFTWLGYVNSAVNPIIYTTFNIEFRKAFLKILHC

[2] = biological target: D2R and DOR-Gqi5 (UniProt P14416+P32300); assay: Aequorin assay in cells stably coexpressing D2R and DOR-Gqi5

DPDPE was tested, and the “activation of DOR-Gqi5” value [1] was “about 10%”, the “signaling at DOR-Gqi5” value [1] was “signals effectively” and the “enhancement of the potency of quinpirole” value [2] was 10 fold.

— patent US20110160081A1, “FUNCTIONAL COMPLEMENTATION ASSAY FOR DEFINED GPCR OLIGOMERS” (priority 2008, published 2011)
